Source: PubChem (National Center for Advancing Translational Sciences (NCATS))
Glioma ERSR ind – induces the endoplasmic reticulum stress response in human glioma cells | U87-MG GRP78 promoter luciferase reporter, 16 h | Potency, µM, for inactives: at the highest dose activation, usual class: activators | actives 0.02% (n = 420,000) | AID 602332; further: potency means the concentration at half of the fitted maximal effect; series mostly up to about 76 µM; % of control where 0% means no effect; nearly all actives have a fitted effect of over 35% in size
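Stably transfected U87-MG glioma cells carrying a GRP78-based luciferase sensor; 16 h compound incubation. Luminescence end-point read 10 min after Bright-Glo addition at room temperature.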
PTAP TSG101 blk – blocks PTAP/TSG101 interaction to inhibit HIV-1 budding; Fluorescence polarization, FITC-PTAP peptide / Tsg101 binding; Potency, µM (doses to about 115 µM), for inactives: top-dose activity change, negative = inhibition, most hits filed as inhibitors; 340,000 tested, under 10 active; active means well fitted inhibition curve with a large enough effect in the main read-out, with a control signal flat, not every such curve was filed as active; inconclusive means small, poorly fitted or top-dose-only effect, or effect the other way, or a change in a side signal; inactive means no such curve, though single readings can be large or run the other way; further: potency means the concentration at half of the fitted maximal effect; % of control where 0% means no effect
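Fluorescence polarization binding of Tsg101 binding domain (10 uM final) to FITC-labeled PTAP peptide (50 nM final) in HEPES pH 7.5 buffer with NaCl, Tween 20, EDTA, TCEP. Compounds added before peptide; binding 20 min at RT.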
Nrf2 inh – Nrf2 pathway inhibition. A549 ARE-Fluc reporter, luciferase luminescence, 18-24 h. Potency, µM (top dose mostly 46 µM), without a hit: at the highest dose activity change, negative = inhibition, most hits filed as inhibitors. actives 2.1% (n = 360,000). AID 504444; further: potency means the concentration at half of the fitted maximal effect; on the % scale 0 is the no-effect control and ±100 the full control effect; nearly all actives have a fitted effect of over 60% in size
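Cells were seeded and rested 2 h, then exposed to compounds for 18-24 h. CellTiter-Fluor was read first as a viability measure. BugLite was added 15 min before the final luminescent read of ARE-luciferase activity in A549 cells.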
Nrf2 activator – activates Nrf2 signaling | AREc32 ARE-luciferase reporter (MCF7-derived line), luminescence, 24 h | Potency, µM (doses to about 46.1 µM), without a hit: at the highest dose activation, actives largely listed as activators | actives 0.31% (n = 410,000); further: potency means the concentration at half of the fitted maximal effect; % of control where 0% means no effect; nearly all actives have a fitted effect of over 65% in size
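Each well held 1000 AREc32 cells, which were incubated with compound for 24 hr at 37 deg C after overnight attachment, and ARE reporter activity was quantified by firefly luciferase luminescence.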
miR-21 reporter – raises the signal of a miR-21 reporter | Potency, µM (doses to about 38.3 µM), for inactives: top-dose reporter change, positive = more light | HeLa miR-21 FLuc reporter, luciferase, 48 h | AID 2288 | 340,000 tested, under 10 active; active = well fitted rising curve with a large enough effect; inconclusive = small, poorly fitted or top-dose-only effect; inactive = no such curve, though single readings can be large or run the other way;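 also: % of control where 0% means no effect; miR-21 action dims this reporter so a rising signal means less miR-21 action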
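HeLa cells stably expressing CMV-driven firefly luciferase with a downstream miR-21 binding sequence, endogenously expressing miR-21, were treated with titrations (up to about 40uM final) for 48 hours at 37 degree Celsius. Luciferase luminescence was read after lysis.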
A549 tox – counter-screen for Nrf2 inhibitors: cytotoxicity in A549 cells. AID 504648. actives 0.16% (n = 390,000). A549 ARE-Fluc cells, CellTiter-Fluor viability, 18-24 h. Potency, µM (series often up to 46 µM), for inactives: at the top dose activity change, negative = cytotoxicity, actives largely listed as inhibitors; further: potency means the concentration at half of the fitted maximal effect; on the % scale 0 is the no-effect control and ±100 the full control effect
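Cytotoxicity counterscreen: CellTiter-Fluor fluorescence was measured in A549 ARE_Fluc cells after 18-24 h of compound exposure in a concentration series. The subsequent BugLite luminescent read reports ARE-luciferase activity.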
* hit, by the source's call; ? = inconclusive; · = no result given. Shown are actives, neighbours in structure and some others; about 2.1% of the full set was active somewhere. Unless noted, the call rests on the fitted dose curve; in most records, active means well fitted curve in the direction sought with a large enough effect; inconclusive means small, poorly fitted or top-dose-only effect, or another doubt; inactive means no such curve, though single readings can be large; an effect the other way counts as inactive or inconclusive.

[1] CCCN(CC(=O)Nc1ccccc1OC)CC(=O)c1c(N)n(Cc2ccccc2)c(=O)n(C)c1=O
[2] CCOCCCNC(=O)c1ccc(-n2c(-c3ccccc3)cc3c2CCCCC3)cc1
[3] COCCNC(=O)c1ccc(-n2c(-c3ccccc3)cc3c2CCCCC3)cc1
[4] CC(C)OCCCNC(=O)c1ccc(-n2c(-c3ccccc3)cc3c2CCCC3)cc1
[5] CCCNC(=O)c1ccc(-n2c(-c3ccccc3)cc3c2CCCCC3)cc1
[6] CN(C)CCNC(=O)c1ccc(-n2c(-c3ccccc3)cc3c2CCCC3)cc1
[7] CCNC(=O)c1ccc(-n2c(-c3ccccc3)cc3c2CCCCC3)cc1
[8] CCC(C)NC(=O)c1ccc(-n2c(-c3ccccc3)cc3c2CCCC3)cc1 (configuration not stated)

| Assay by compound | 1 | 2 | 3 | 4 | 5 | 6 | 7 | 8 |
| --- | --- | --- | --- | --- | --- | --- | --- | --- |
| PTAP TSG101 blk | -6.1% | · | · | · | · | · | · | · |
| A549 tox | -19.1% | -2.3% | -8.8% | ? | 4.2% | 0.2% | ? | -2.0% |
| Glioma ERSR ind | -3.2% | -1.8% | 1.9% | -0.2% | -5.5% | -5.0% | -2.5% | -2.7% |
| Nrf2 inh | 13µM* | 18.4µM* | ? | ? | 1.7% | 23.1µM* | ? | 18.4µM* |
| miR-21 reporter | · | ? | -5.9% | ? | -1.0% | 20.5% | 28.2% | -1.4% |
| Nrf2 activator | 0.2% | ? | 15.8µM* | ? | 12.6µM* | 11.2µM* | ? | ? |

[9] Cc1cc2nc(-c3ccc[nH]c3=O)n(Cc3ccc(F)cc3)c2cc1C
[10] Cc1cc2nc(-c3ccc[nH]c3=O)[nH]c2cc1C
[11] CC(=O)c1ccccc1-c1ccc2c(c1)CC(CNC(=O)C[C@@H]1C[C@@H](C)NC(=S)N1)O2 (some centres not stated)
[12] COc1cc(/C=C(\C#N)c2nc3ccc(C)cc3[nH]2)c([N+](=O)[O-])cc1OC
[13] COc1cc(/C=C(\C#N)c2nc3ccc(C)cc3[nH]2)cc([N+](=O)[O-])c1O
[14] COc1ccc(C/C(N)=N/OC(=O)C(c2ccccc2)c2ccccc2)cc1OC
[15] COc1ccc(/C(N)=N/OC(=O)Cc2ccc(OC)c(OC)c2)cc1
[16] CC(C)C(NS(C)(=O)=O)c1nnc2n1CCN(Cc1ccc(C#CC(C)(C)O)cc1)CC2 (configuration not stated)

| Assay by compound | 9 | 10 | 11 | 12 | 13 | 14 | 15 | 16 |
| --- | --- | --- | --- | --- | --- | --- | --- | --- |
| PTAP TSG101 blk | -13.1% | -4.8% | · | 0.3% | -8.6% | -0.7% | -5.9% | · |
| A549 tox | -1.5% | 5.8% | · | ? | 20.6µM* | -7.2% | -13.4% | · |
| Glioma ERSR ind | 2.1% | -1.8% | 4.3% | -7.5% | ? | -1.1% | -0.2% | 1.7% |
| Nrf2 inh | -2.3% | 11.6µM* | · | ? | ? | 23.1µM* | 14.6µM* | · |
| miR-21 reporter | -15.7% | ? | · | 9.1% | -49.2% | -4.1% | -0.6% | · |
| Nrf2 activator | 0.7% | -1.1% | · | 3.4% | 7.5% | 10.8% | 0.7% | · |

The closing 3 compounds of the part before come first, to join the parts.
[14] COc1ccc(C/C(N)=N/OC(=O)C(c2ccccc2)c2ccccc2)cc1OC
[15] COc1ccc(/C(N)=N/OC(=O)Cc2ccc(OC)c(OC)c2)cc1
[16] CC(C)C(NS(C)(=O)=O)c1nnc2n1CCN(Cc1ccc(C#CC(C)(C)O)cc1)CC2 (configuration not stated)
[17] COCCOc1ccc(C(F)(F)F)cc1NC(=O)c1ccc(C)cc1
[18] CCCCOc1ccc(CNC(=O)CCCN2C(=O)CSc3c2c(C)nn3-c2ccccc2)cc1
[19] Cc1nn(-c2ccccc2)c2c1N(CCCC(=O)NCc1ccccc1)C(=O)CS2
[20] CC(C)Oc1ccc(CNC(=O)c2cccc(NC(=O)N3CCSc4ncccc43)c2)cc1
[21] Cc1ccccc1Nc1nnc(SCc2cc([N+](=O)[O-])cc3c2OCOC3)s1
[22] Cc1csc[n+]1CC(=O)c1ccc(I)cc1
[23] O=C(Nc1ccc2nc(-c3ccc(Br)o3)[nH]c2c1)c1cccs1
[24] CC(=O)Nc1ccc2nc(-c3ccc(Br)o3)[nH]c2c1

| Assay by compound | 14 | 15 | 16 | 17 | 18 | 19 | 20 | 21 | 22 | 23 | 24 |
| --- | --- | --- | --- | --- | --- | --- | --- | --- | --- | --- | --- |
| PTAP TSG101 blk | -0.7% | -5.9% | · | 1.3% | · | · | · | -0.6% | · | -3.6% | -1.3% |
| A549 tox | -7.2% | -13.4% | · | 0.3% | -13.4% | -10.7% | 3.7% | -0.6% | · | ? | 3.4% |
| Glioma ERSR ind | -1.1% | -0.2% | 1.7% | -3.4% | -4.0% | -3.3% | 0.4% | -7.1% | 1.7% | 6.2% | -4.3% |
| Nrf2 inh | 23.1µM* | 14.6µM* | · | -1.1% | 29.1µM* | ? | 23.1µM* | 25.9µM* | · | 18.4µM* | ? |
| miR-21 reporter | -4.1% | -0.6% | · | -3.6% | 20.0% | 21.2% | 5.1% | 1.3% | · | -12.1% | -51.2% |
| Nrf2 activator | 10.8% | 0.7% | · | 11.2µM* | -0.3% | 0.6% | 3.3% | 0.1% | · | 6.7% | 3.1% |

[25] Cn1cccc1-c1nc2ccc(NC(=O)c3cccs3)cc2[nH]1
[26] Cc1cc2c(s1)c1cnn(Cc3ccc(C#N)cc3)c(=O)c1n2C
[27] Cn1c(=O)c(/C=C/c2ccccc2)nc2ccccc21
[28] CCc1ccc(S(=O)(=O)/N=C2\C=C(Nc3ccc(O)cc3)C(=O)c3ccccc32)cc1
[29] CCc1ccc(S(=O)(=O)/N=C2\C=C(Nc3cccc(C(=O)O)c3)C(=O)c3ccccc32)cc1
[30] O=C(NC(c1cccnc1)C(F)(F)F)c1cnn(-c2nccc(-c3cccs3)n2)c1C1CC1 (configuration not stated)
[31] COc1ccc(CCC(=O)OCC(=O)c2c(N)n(CC(C)C)c(=O)n(C)c2=O)cc1
[32] Cc1nn(-c2ccccc2)c(C)c1C(=O)OCC(=O)c1c(N)n(CC(C)C)c(=O)n(C)c1=O

| Assay by compound | 25 | 26 | 27 | 28 | 29 | 30 | 31 | 32 |
| --- | --- | --- | --- | --- | --- | --- | --- | --- |
| PTAP TSG101 blk | -0.7% | · | -6.6% | 0.5% | -5.0% | · | -1.1% | -4.1% |
| A549 tox | -13.9% | -3.4% | 1.8% | 11.6µM* | ? | · | -11.4% | ? |
| Glioma ERSR ind | -2.2% | · | 6.0% | -18.9% | -17.2% | 1.8% | -2.5% | -3.4% |
| Nrf2 inh | 17.8µM* | 7.0% | ? | 8.2µM* | 20.6µM* | · | 23.1µM* | 5.8µM* |
| miR-21 reporter | -15.7% | · | -67.4% | ? | ? | · | 4.7% | 27.7% |
| Nrf2 activator | 3.3% | · | 5.01µM* | -2.1% | -2.6% | · | -0.3% | -0.7% |

[33] CC(=O)c1c(C)[nH]c(C(=O)OCC(=O)c2c(N)n(C)c(=O)n(C)c2=O)c1C
[34] CC(=O)c1c(C)[nH]c(C(=O)OCC(=O)c2c(N)n(CC(C)C)c(=O)n(C)c2=O)c1C
[35] CC(C)Cn1c(N)c(C(=O)COC(=O)C2Cc3ccccc3CN2S(C)(=O)=O)c(=O)n(C)c1=O (configuration not stated)
[36] CC(C)Cn1c(N)c(C(=O)COC(=O)C2CCCCC2)c(=O)n(C)c1=O
[37] Cc1nn(-c2ccccn2)c2c1-c1nc(N)sc1CC2
[38] CC1=CC(O)=NS(=O)(=O)O1
[39] Cc1cnc(SCc2ccccn2)nc1C1CCCN(C(=O)c2coc3c2C(=O)CCC3)C1 (configuration not stated)
[40] Cc1ccc(NS(=O)(=O)c2ccc(Cl)cc2)cc1C

| Assay by compound | 33 | 34 | 35 | 36 | 37 | 38 | 39 | 40 |
| --- | --- | --- | --- | --- | --- | --- | --- | --- |
| PTAP TSG101 blk | · | -7.2% | -1.9% | -1.9% | · | · | · | · |
| A549 tox | · | -2.1% | -10.3% | -9.1% | · | · | · | 14.1% |
| Glioma ERSR ind | · | -0.7% | -2.2% | -9.3% | 3.8% | -4.8% | 0.2% | · |
| Nrf2 inh | · | 18.4µM* | 20.6µM* | ? | · | · | · | -19.8% |
| miR-21 reporter | -1.7% | · | · | 0.6% | · | · | · | · |
| Nrf2 activator | · | 7.5% | 2.1% | 0.1% | · | · | · | · |

[41] O=C(CNC(=O)c1ccccc1)OC(CCc1ccccc1)C(=O)Nc1cc(C(F)(F)F)ccc1Cl (configuration not stated)
[42] CCC(C(=O)OCC(=O)c1c(N)n(CC(C)C)c(=O)n(C)c1=O)c1ccccc1 (configuration not stated)
[43] CCOc1ccccc1OCC(=O)OCC(=O)c1c(N)n(CC(C)C)c(=O)n(C)c1=O
[44] Clc1ccc(Br)cc1-c1nc(-c2ccncc2)no1

| Assay by compound | 41 | 42 | 43 | 44 |
| --- | --- | --- | --- | --- |
| PTAP TSG101 blk | · | -2.2% | -6.1% | -4.4% |
| A549 tox | -0.4% | -16.3% | -1.2% | 0.4% |
| Glioma ERSR ind | · | 1.1% | -2.7% | 6.0% |
| Nrf2 inh | 13.1% | 23.1µM* | ? | ? |
| miR-21 reporter | · | · | · | -3.0% |
| Nrf2 activator | · | -0.5% | 2.7% | 3.98µM* |
